Data set [1] relates to <<MSC>> SAMU 43 cells derived from hES cells (SA01). Put plainly: Dose response of statins with and without mevalonate, cells counted by image analysis. The class given is cell-based, human. The settings on record: 7 days of cultivation.
For data set [2], the system named is <<MSC>> SA01 cells derived from hES cells (SA01). The following applies: 72 hours, 384-well plates.

For the substance Mevinolin, the “number of cells (image analysis)” value was 122 in data set [1] (statin 5 10^−6 M), 6934 in data set [1] (statin 5 10^−7 M), 3232 in data set [1] (statin 10^−6 M) and 10021 in data set [1] (statin 10^−7 M). Also, in data set [2] (with mevalonate), the “cell viability as percentage of the result without any treatment, With Mevalonate” value is listed as 96.4%. Also, the “cell viability as percentage of the result without any treatment, Without Mevalonate” value in data set [2] (without mevalonate) turned out to be 53.6%.

These data come from patent US9250231B2, “Method for selecting mevalonate synthesis modulators using cells derived from human pluripotent cells” (Centre d'Etude des Cellules Souches, priority 2010, dated 2016).
